According to patent US9802888B2, “STAT3 inhibitors” (UNIVERSITY OF HAWAII, priority 2013, dated 2017):

System: human breast tumor (MDA-MB-231) xenografts
Details: oral gavage, 3 mg/kg every day

Q: With `CN(CC(=O)N(Cc1ccc(C2CCCCC2)cc1)c1ccc(C(=O)NO)cc1)S(=O)(=O)c1c(F)c(F)c(F)c(F)c1F` [SH5-07] as the compound, how does the “growth of human breast tumor (MDA-MB-231) xenografts” value read?
A: inhibited the growth
